According to patent US20190353647A1, “NOVEL REAL-TIME MULTIPLEXED, MULTI-COLOR BIOLUMINESCENCE RESONANCE ENERGY TRANSFER ASSAY, APPARATUS, AND USES THEREOF” (Universite de Bordeaux, priority 2016, published 2019):
Values joined by “and” are separate entries in the source; they are usually repeats but may differ in a detail not shown here. Equal values may be shown once.

Legend:
Luc-TRPV3 (human) [1] = target: Luc-TRPV3 (human) (UniProt Q8NET8); assay: three-color spectral BRET, mixed population of HEK293T cells, purple coelenterazine
TRPV-Luc = assay: BRET in live HEK293T cells, agonist activation
TRPV1-Luc (human) = TRPV1-Luc (human) (UniProt Q8NER1); assay: BRET in live HEK293T cells, saturating YFP-CaM expression, no agonist
TRPV4-Luc (human) [2] = target: TRPV4-Luc (human) (UniProt Q9HBA0); assay: as above
Luc-TRPV3 (human) [3] = target: Luc-TRPV3 (human) (UniProt Q8NET8); assay: as above
TRPV4-Luc (human) [4] = target: TRPV4-Luc (human) (UniProt Q9HBA0); assay: three-color spectral BRET, mixed population of HEK293T cells, purple coelenterazine

## aquamarine-CaM (from UniProt P0DP23 2-149)
Luc-TRPV3 (human) [1]
  basal BRET: 0.027 BRET ratio

## YFP-CaM (from UniProt P0DP23 2-149)
TRPV-Luc
  increase of BRET upon activation (% of basal net BRET) (% of basal net BRET): 65 and 115
TRPV1-Luc (human)
  basal BRET: 0.202 BRET ratio
TRPV4-Luc (human) [2]
  basal BRET: 0.275 BRET ratio
Luc-TRPV3 (human) [3]
  basal BRET: 0.221 BRET ratio

## LSSmOrange-CaM (from UniProt P0DP23 1-149)
TRPV4-Luc (human) [4]
  basal BRET: 0.017 BRET ratio
